Reference: patent US20020086027A1, “Composition and method for enhancing immunological memory response” (priority 1998, published 2002)

System: human T cells
Experiment: Secondary (recall) alloproliferative response of T cells primed in vitro
Format: cell-based
Conditions: exogenous IL-2 alone during priming
Description: In this system, we have used responses to first exposure as an indication of primary responses. When cells stimulated in this fashion are rested in culture and then restimulated with the same stimulator PBMCs, the 'recall' response measured are taken as an indication of immune memory. Proliferation is measured by the incorporation of radioactive tritiated thymidine in dividing cells. For priming, responder and stimulator cells mixed in 2-5 ml cultures in a ratio of 1:1-3:1. After five days of incubation, the cells were harvested, counted and viable cells used as primed responders with g-irradiated allostimulators in secondary alloproliferation assays, which were pulsed with (H^3)-thymidine after four days for estimating cell proliferation. For flow cytometric analysis, cells were separated from debris by Ficoll-Paque gradient centrifugation before staining. […] Cells were then harvested and washed extensively, and viable cells were counted and used as primed responders in a recall assay with freshly isolated and irradiated stimulator PBMCs or with graded doses of either IL-2 (Boenringer Mannheim Corp., […], Germany) or PHA (Boehnnger Mannheim Corp.), along with 1×10^5 irradiated responder PBMCs.

IL-2: recombinant IL-2 (Boehringer Mannheim)
recall capability: does neither enhance
